Laboratory results as given in patent publication US11999759B2, “Boronic acid derivatives and therapeutic uses thereof” (Qpex Biopharma, Inc., priority 2016, dated 2024).

Sequences of proteins named here, by UniProt entry; tags and fusion partners are left off. Residues count along the entry.
UniProt C7C422, 29-270, looked up, species assumed: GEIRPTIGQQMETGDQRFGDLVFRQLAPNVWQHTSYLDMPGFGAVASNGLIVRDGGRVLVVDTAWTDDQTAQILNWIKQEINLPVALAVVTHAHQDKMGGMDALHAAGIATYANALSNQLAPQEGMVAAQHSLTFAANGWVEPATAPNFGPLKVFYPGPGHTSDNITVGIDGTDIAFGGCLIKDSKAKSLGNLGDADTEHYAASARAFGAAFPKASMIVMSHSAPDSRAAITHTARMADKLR

Target: NDM-1 (Klebsiella pneumoniae, UniProt C7C422)
Test: Inhibition of imipenem cleavage by purified NDM-1
Format: biochemical
Details: imipenem reporter substrate; 37° C.; read-out: Ki (NDM-1, IMI)
Experimental: Ki values of inhibition of purified class B enzymes NDM-1 and IMP-1 were determined spectrophotometrically using imipenem as reporter substrate. Purified enzymes were mixed with various concentrations of inhibitors in reaction buffer and incubated for 10 min at room temperature. Imipenem was added and substrate cleavage profiles were recorded at 294 nm every 30 seconds for 30 minutes at 37° C. These experiments further confirmed that the described compounds have the ability to inhibit carbapenemase activity of metallo-beta-lactamases.

| Structure (SMILES) | pKi |
| --- | --- |
| O=C(O)c1c(F)ccc2c1OB(O)[C@H]1C[C@@H]21 [Compound 12, (1aS,7bR)-5-fluoro-2-hydroxy-1a,7b-dihydro-1H-cyclopropa[c][1,2]benzoxaborinine-4-carboxylic acid] | 6.00 to 7.00 |
| O=C(O)c1c(F)ccc2c1OB(O)C1CC21 (stereo not drawn) [Compound 4, 5-Fluoro-2-hydroxy-1a,7b-dihydro-1H-cyclopropa[c][1,2]benzoxaborinine-4-carboxylic acid] | 6.00 to 7.00 |
| O=C(O)c1c(F)ccc2c1OB(O)[C@@H]1C[C@H]21 [Compound 13, (1aR,7bS)-5-fluoro-2-hydroxy-1a,7b-dihydro-1H-cyclopropa[c][1,2]benzoxaborinine-4-carboxylic acid] | > 7.00 |

pKi: −log10 of the molar value.
